Data taken from ChEMBL document CHEMBL4428091, “Design and optimization of (3-aryl-1H-indazol-6-yl)spiro[cyclopropane-1,3'-indolin]-2'-ones as potent PLK4 inhibitors with oral antitumor efficacy” (Bioorg Med Chem Lett, 2016).

Biological target: T1, Serine/threonine-protein kinase PLK4 (Homo sapiens, UniProt O00444)
T1 sequence (O00444 whole entry): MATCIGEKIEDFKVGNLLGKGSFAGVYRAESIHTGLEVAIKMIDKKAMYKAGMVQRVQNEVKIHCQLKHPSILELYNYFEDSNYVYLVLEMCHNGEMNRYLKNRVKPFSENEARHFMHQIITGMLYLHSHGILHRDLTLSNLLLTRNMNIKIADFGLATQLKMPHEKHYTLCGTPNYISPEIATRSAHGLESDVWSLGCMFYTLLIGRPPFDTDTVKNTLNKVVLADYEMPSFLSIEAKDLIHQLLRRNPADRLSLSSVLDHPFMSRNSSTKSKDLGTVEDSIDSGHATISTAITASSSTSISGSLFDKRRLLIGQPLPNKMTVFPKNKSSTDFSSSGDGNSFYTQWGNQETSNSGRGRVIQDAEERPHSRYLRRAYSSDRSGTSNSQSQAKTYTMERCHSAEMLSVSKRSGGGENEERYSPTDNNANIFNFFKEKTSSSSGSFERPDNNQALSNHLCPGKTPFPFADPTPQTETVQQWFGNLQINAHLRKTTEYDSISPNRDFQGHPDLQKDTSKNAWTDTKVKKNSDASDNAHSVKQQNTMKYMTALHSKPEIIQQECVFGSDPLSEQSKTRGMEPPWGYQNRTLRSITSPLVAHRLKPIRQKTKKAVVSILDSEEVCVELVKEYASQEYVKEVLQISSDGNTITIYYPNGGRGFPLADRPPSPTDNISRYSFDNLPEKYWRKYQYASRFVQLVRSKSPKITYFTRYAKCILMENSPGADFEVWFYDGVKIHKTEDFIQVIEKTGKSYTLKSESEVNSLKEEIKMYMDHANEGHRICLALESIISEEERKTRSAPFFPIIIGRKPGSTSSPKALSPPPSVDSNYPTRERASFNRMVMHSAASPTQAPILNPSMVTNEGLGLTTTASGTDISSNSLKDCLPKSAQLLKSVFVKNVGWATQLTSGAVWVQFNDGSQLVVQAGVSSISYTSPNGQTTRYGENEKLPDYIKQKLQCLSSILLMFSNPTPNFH
Assay: Inhibition of PLK4 (unknown origin)

SMILES	IC50 [nM]
COc1ccc2c(c1)[C@]1(C[C@H]1c1ccc3c(-c4ccc(N5CCC(O)CC5)nc4)n[nH]c3c1)C(=O)N2 (racemic)	1.7
COc1ccc2c(c1)[C@]1(C[C@H]1c1ccc3c(-c4ccc(N5CCOCC5)nc4)n[nH]c3c1)C(=O)N2 (racemic)	4.6
